# Experimental data reported in patent publication US20050138675A1, “Method for determining cardiotoxicity” (Pfizer Inc., priority 2003, published 2005).
# Columns and labels:
# [1] = system: cardiac ventricular tissue; conditions: for number of cardiac tissue genes induced at least 2-fold higher than controls / number of cardiac tissue genes suppressed at least 2-fold lower than control expression levels: acute i.p. DIG 20.0, DOX 30.0, ISO 70.0, LPS 10.0 mg/kg
# Description: Male Sprague-Dawley rats weighing between 175-220 grams were used for all studies. Animals were purchased from Charles River Laboratories (Wilmington, Mass.) and allowed to acclimate for one week prior to use. All animals were given food and water ad libitum, and housed under a 12-hour light/12-hour dark cycle. The animals were housed in conventional plastic bottom cages (2 animals/cage) with corncob bedding. All dosing with test compounds was a single acute injection by the intraperitoneal route, in normal saline, with a 20×¾″ disposable needle attached to a 1 cc disposable syringe. These animals were euthanized by a 150 mg/kg intraperitoneal injection of Nembutal prior to collection of heart tissue.
# Dose range-finding studies were completed to determine a xenobiotic dose that would produce signs of cardiotoxicity such as elevated serum troponins, creatine kinase isoenzymes, or histo-pathological tissue changes, without causing overt general toxicity. Comprehensive literature reviews were also used to select doses. […] Six or twenty-four hours later, animals were euthanized with a lethal intraperitoneal dose of Nembutal solution. Biopsy punches were used to remove approximately […] of ventricular tissue for subsequent RNA isolation and gene expression analysis. Total RNA was isolated from the samples using a Qiagen RNAeasy protocol (Valencia, Calif.). In this procedure, RNA is captured on a solid phase column, then washed with a series of solutions to purify the sample. In the last step, RNA is eluted from the column with RNAse free water. RNA quality and quantity was then checked with an optical density reading at 260/280 wavelengths, and an aliquot of RNA was run on an RNA denaturing gel. High quality RNA should have an OD 260/280 ratio of 2, and the denaturing gel should show two distinct ribosomal RNA bands.
# Synthesis of double stranded cDNA from the total RNA isolated was the first step, which involves the incorporation of a T7-(dT)24 primer into the sequence, with subsequent second strand synthesis which yields a double stranded template for the in vitro transcription (IVT) reaction. The resulting cDNA was run in an IVT reaction using an Enzo BioArray High Yield RNA transcript labeling kit (Enzo Life Sciences, Inc. Farmingdale, N.Y.), during which a biotin label was incorporated into the complementary RNA (cRNA) sequence. This step also amplified the product by generating approximately 40 transcripts per cDNA substrate. After the IVT reaction, cRNA was fragmented by metallic fragmentation, and a small portion of the sample was run on a 1% agarose gel in order to visualize the fragmentation pattern. The range should be between 35 to 200 bases. Four samples from each group showing the highest purity and quality results were pooled for hybridization onto one Genechip to greatly reduce experimental costs. Genes of interest that are found through the use of GeneChip technology, will then be verified using real time PCR techniques on each individual sample.
# Next, the cRNA was hybridized to the RG U34A GeneChip oligonucleotide array (Affymetrix Inc, Santa Clara, Calif.). An aliquot of the fragmented cRNA was mixed with control components, injected into the array, and the filled array was allowed to incubate at 45° C. for 16 hours in an Affymetrix oven, which rotates the samples continuously during incubation. The next morning, the array was taken from the oven and the sample was removed and frozen at −80° C. for possible future use. That is, in the event of a defective chip, the hybridization solution can be re-used. The array chamber was then filled with a wash buffer, and placed in an automated fluid exchange system. The fluidics station controls the washing and staining of the probe array with the fluorescently labeled streptavidin stain solution and an antibody solution. After the staining process was complete the chips were scanned by an Agilent GeneArray laser scanner (Agilent, Palo Alto, Calif.).
# [2] = system: cardiac ventricular tissue; conditions: relative to vehicle control, individual samples n = 4/group, DIG 20, DOX 30, ISO 70, LPS 10 mg/kg i.p.
# Description: Quantitative real time PCR techniques (Q-PCR) are used to further analyze the genes of interest and are applied to each individual sample, rather than the pooled sample analysis used with the GeneChips. […] Individual RNA samples are reverse transcribed using a poly dT oligonucleotide primer to produce single stranded cDNA. The Primers used, listed in Table 2, were selected using on-line software that optimizes primer selection for product size and favorable Q-PCR reaction conditions (http://frodo.wi.mit.edu/cgi-bin/primer3/primer3_www.cgi). The target sequence was PCR amplified by combining primer pairs in a solution of PCR Master Mix (Promega, San Luis Obispo Calif.). PCR fragments of expected size (as determined by gel electrophoresis) were cloned using a TOPO TA cloning kit (Invitrogen, Carlsbad, Calif.) with subsequent plasmid DNA purification using a OlAprep Spin Miniprep Kit (Qiagen, Valencia, Calif.). […] Single stranded cDNA or plasmid standards were amplified for quantitation using the Quantitect™ SYBR Green PCR kit (Qiagen). […] Each cycle included denaturation at 94° C. for 15 sec, oligonucleotide annealing at 50° C. for 20 sec, product synthesis at 72° C. for 30 sec., and quantitative acquisition at 1-2° C. below the melting temperature of the product. […]
# [3] = 6 hour, relative to vehicle control, pooled n = 4 samples/group, DIG 20, DOX 30, ISO 70, LPS 10 mg/kg i.p.
# [4] = 24 hour, relative to vehicle control, pooled n = 4 samples/group, DIG 20, DOX 30, ISO 70, LPS 10 mg/kg i.p.
substance,measurement,setting,value
lipopolysaccharide [LPS],AA957003 (intercellular calcium-binding protein) Array fold change,[1]; [3],4.00* Fold Change
same,AI176456 (metallothionein) Array fold change,[1]; [3],327.72* Fold Change
same,J02722 (heme oxygenase) Array fold change,[1]; [3],14.69* Fold Change
same,X01118 (gamma-rANP) Array fold change,[1]; [3],0.33* Fold Change
same,X89225 (L-like neutral amino acid transport protein) Array fold change,[1]; [3],2.44* Fold Change
same,number of cardiac tissue genes induced at least 2-fold higher than controls,[1]; 6 hours after treatment,374 genes
same,number of cardiac tissue genes suppressed at least 2-fold lower than control expression levels,[1]; 6 hours after treatment,663 genes
same,AA892801 (EST) Array fold change,[1]; [4],2.58* Fold Change
same,AA899106 (cyclin D2) Array fold change,[1]; [4],0.06* Fold Change
same,AB005743 (fatty acid transporter) Array fold change,[1]; [4],2.15* Fold Change
same,AF016296 (neuropilin) Array fold change,[1]; [4],0.28* Fold Change
same,AI008852 (EST) Array fold change,[1]; [4],3.47* Fold Change
same,AI170776 (GRB2) Array fold change,[1]; [4],2.18* Fold Change
same,D85183 (SHPS-1) Array fold change,[1]; [4],3.70* Fold Change
same,M57276 (leukocyte antigen MRC-OX44) Array fold change,[1]; [4],4.17* Fold Change
same,U14950 (synapse-associated protein 97) Array fold change,[1]; [4],2.19 Fold Change
same,U68272 (interferon gamma receptor) Array fold change,[1]; [4],2.96* Fold Change
same,X52140 (integrin alpha-1) Array fold change,[1]; [4],0.17* Fold Change
same,X71127 (complement protein C1q beta chain) Array fold change,[1]; [4],3.70* Fold Change
same,number of cardiac tissue genes induced at least 2-fold higher than controls,[1]; 24 hours after treatment,279 genes
same,number of cardiac tissue genes suppressed at least 2-fold lower than control expression levels,[1]; 24 hours after treatment,172 genes
same,AA957003 (intercellular calcium-binding protein) Q-PCR ± SD fold change,[2]; 6 hour,8.86 ± 6.16 Fold Change
same,AA892801 (EST) Q-PCR ± SD fold change,[2]; 24 hour,4.41 ± 2.03 Fold Change

# Like-named read-outs stand apart in the source and are kept apart here. Marks after values point to notes of the source that are not given here.
